CycPeptMPDB entries from one study

Values of Furukawa et al. 2016, doi:10.1021/acs.jmedchem.6b01246, as listed in CycPeptMPDB.

PAMPA measures passive passage through an artificial lipid membrane. Caco-2 values are permeabilities across monolayers of Caco-2 human intestinal cells. Values are log10 P with P in cm/s, so -5 is more permeable than -7. "n/a" marks a cell with nothing listed here.

PAMPA (log10 cm/s) | Caco-2 (log10 cm/s) | structure (SMILES)
-5.28 | n/a | CCCCCN1CC(=O)N(C)[C@@H](CC(C)C)C(=O)N[C@@H](CCCC)C(=O)N2CCC[C@@H]2C(=O)N(CCN2CCOCC2)CC(=O)N[C@@H](Cc2ccccc2)C1=O
-5.43 | n/a | CCCC[C@@H]1NC(=O)[C@H](CC(C)C)N(C)C(=O)CN(CCc2cccnc2)C(=O)[C@H](Cc2ccc3ccccc3c2)NC(=O)CN(CCC)C(=O)[C@H]2CCCN2C1=O
-5.23 | n/a | CCCC[C@@H]1NC(=O)[C@H](CC(C)C)N(C)C(=O)CN(CC2CCOCC2)C(=O)[C@H](Cc2ccc3ccccc3c2)NC(=O)CN(CC)C(=O)[C@H]2CCCN2C1=O
-9.12 | n/a | CCCC[C@@H]1NC(=O)[C@H](CC(C)C)N(C)C(=O)CN(CC2CCCCC2)C(=O)[C@H](Cc2ccc3ccccc3c2)NC(=O)CN(Cc2ccc3c(c2)OCO3)C(=O)[C@H]2CCCN2C1=O
-6.49 | n/a | CCCCCN1CC(=O)N(C)[C@@H](CC(C)C)C(=O)N[C@@H](CCCC)C(=O)N2CCC[C@@H]2C(=O)N(CC)CC(=O)N[C@@H](Cc2ccc3ccccc3c2)C1=O
-5.73 | -6.11 | CCCC[C@@H]1NC(=O)[C@H](CC(C)C)N(C)C(=O)CN(CCOC)C(=O)[C@H](Cc2ccc3ccccc3c2)NC(=O)CN(CCN2CCOCC2)C(=O)[C@H]2CCCN2C1=O
-5.23 | n/a | CCCC[C@@H]1NC(=O)[C@H](CC(C)C)N(C)C(=O)CN(CCOC)C(=O)[C@H](CC(C)C)NC(=O)CN(Cc2ccccc2Cn2cccn2)C(=O)[C@H]2CCCN2C1=O
-6.60 | n/a | CCCC[C@@H]1NC(=O)[C@H](CC(C)C)N(C)C(=O)CN(CCCN2CCCC2=O)C(=O)[C@H](Cc2ccccc2)NC(=O)CN(CC)C(=O)[C@H]2CCCN2C1=O
-6.23 | n/a | CCCC[C@@H]1NC(=O)[C@H](CC(C)C)N(C)C(=O)CN(CCOc2ccccc2)C(=O)[C@H](CC(C)C)NC(=O)CN(Cc2ccccc2Cn2cccn2)C(=O)[C@H]2CCCN2C1=O
-5.59 | -6.02 | CCCC[C@@H]1NC(=O)[C@H](CC(C)C)N(C)C(=O)CN(CCc2cccnc2)C(=O)[C@H](CC(C)C)NC(=O)CN(Cc2ccccc2Cn2cccn2)C(=O)[C@H]2CCCN2C1=O
-7.62 | n/a | CCCC[C@@H]1NC(=O)[C@H](CC(C)C)N(C)C(=O)CN(CCCN2CCCC2=O)C(=O)[C@H](C)NC(=O)CN(CC(C)C)C(=O)[C@H]2CCCN2C1=O
-7.83 | n/a | CCCC[C@@H]1NC(=O)[C@H](CC(C)C)N(C)C(=O)CN(CC2CCCCC2)C(=O)[C@H](Cc2ccc3ccccc3c2)NC(=O)CN(Cc2ccccc2Cn2cccn2)C(=O)[C@H]2CCCN2C1=O
-7.60 | n/a | CCCC[C@@H]1NC(=O)[C@H](CC(C)C)N(C)C(=O)CN(CCCc2cnn(C)c2)C(=O)[C@H](Cc2ccc3ccccc3c2)NC(=O)CN(Cc2ccc3c(c2)OCO3)C(=O)[C@H]2CCCN2C1=O
-8.53 | n/a | CCCC[C@@H]1NC(=O)[C@H](CC(C)C)N(C)C(=O)CN(Cc2ccccc2)C(=O)[C@H](Cc2ccc3ccccc3c2)NC(=O)CN(Cc2ccc3c(c2)OCO3)C(=O)[C@H]2CCCN2C1=O
-5.14 | n/a | CCCC[C@@H]1NC(=O)[C@H](CC(C)C)N(C)C(=O)CN(CC2CCOCC2)C(=O)[C@H](CC(C)C)NC(=O)CN(CCCOC(C)C)C(=O)[C@H]2CCCN2C1=O

A selection of 2 entries from above:

structure (SMILES)	PAMPA (log10 cm/s)	Caco-2 (log10 cm/s)
CCCC[C@@H]1NC(=O)[C@H](CC(C)C)N(C)C(=O)CN(CC2CCOCC2)C(=O)[C@H](CC(C)C)NC(=O)CN(CCCOC(C)C)C(=O)[C@H]2CCCN2C1=O	-5.14	n/a
CCCC[C@@H]1NC(=O)[C@H](CC(C)C)N(C)C(=O)CN(CC2CCOCC2)C(=O)[C@H](Cc2ccc3ccccc3c2)NC(=O)CN(CC)C(=O)[C@H]2CCCN2C1=O	-5.23	n/a

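The data file gives no further conditions (lipid, pH, time, direction or concentration), and values from different papers need not be comparable. Other peptides of the study may be missing here. Peptides that the database sets to -10, its floor, are left out.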